According to BindingDB's records for doi:10.1021/acsmedchemlett.0c00302 (Merck, 2020):

Target: T1, Histone deacetylase 6 (Homo sapiens, UniProt Q9UBN7)
T1 sequence (Q9UBN7 whole entry): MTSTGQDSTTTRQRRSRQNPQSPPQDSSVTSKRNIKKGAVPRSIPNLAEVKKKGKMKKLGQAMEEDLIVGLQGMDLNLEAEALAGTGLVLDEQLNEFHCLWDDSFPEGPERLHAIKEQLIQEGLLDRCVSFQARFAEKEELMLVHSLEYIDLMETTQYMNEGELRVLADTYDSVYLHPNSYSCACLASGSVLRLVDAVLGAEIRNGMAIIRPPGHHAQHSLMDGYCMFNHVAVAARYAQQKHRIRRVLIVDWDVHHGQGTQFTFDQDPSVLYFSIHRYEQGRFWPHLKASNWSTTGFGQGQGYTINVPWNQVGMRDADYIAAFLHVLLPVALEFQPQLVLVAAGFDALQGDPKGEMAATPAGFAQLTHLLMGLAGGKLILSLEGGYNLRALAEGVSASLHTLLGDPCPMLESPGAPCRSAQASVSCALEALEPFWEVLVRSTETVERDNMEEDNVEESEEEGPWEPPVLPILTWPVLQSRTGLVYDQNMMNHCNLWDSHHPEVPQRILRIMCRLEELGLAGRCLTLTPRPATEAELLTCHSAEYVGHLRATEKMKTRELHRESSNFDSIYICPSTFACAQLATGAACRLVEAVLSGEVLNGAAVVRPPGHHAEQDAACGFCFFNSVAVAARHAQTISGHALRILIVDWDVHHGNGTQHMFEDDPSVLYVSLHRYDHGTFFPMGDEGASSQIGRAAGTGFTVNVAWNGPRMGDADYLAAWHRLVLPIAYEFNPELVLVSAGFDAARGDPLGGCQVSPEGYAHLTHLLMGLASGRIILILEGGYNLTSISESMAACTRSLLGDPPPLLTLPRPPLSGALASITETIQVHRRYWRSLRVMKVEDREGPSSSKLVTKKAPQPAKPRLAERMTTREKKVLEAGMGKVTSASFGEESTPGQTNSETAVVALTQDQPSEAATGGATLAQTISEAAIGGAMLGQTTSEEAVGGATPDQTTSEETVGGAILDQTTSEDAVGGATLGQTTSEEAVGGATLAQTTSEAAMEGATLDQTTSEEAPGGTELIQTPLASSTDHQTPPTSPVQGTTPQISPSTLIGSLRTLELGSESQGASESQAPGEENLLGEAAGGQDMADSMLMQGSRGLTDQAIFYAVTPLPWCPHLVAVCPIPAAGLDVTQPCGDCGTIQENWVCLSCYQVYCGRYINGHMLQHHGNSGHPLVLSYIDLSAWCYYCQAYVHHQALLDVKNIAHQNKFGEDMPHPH

N[C@@H](CCCCCC(=O)c1ccon1)c1ncc(-c2ccccc2F)[nH]1
IC50: > 45 µM
